This note sets out measurements from article PMC10123104, “YbiB: a novel interactor of the GTPase ObgE”.

This series addresses T1, YbiB WT (Escherichia coli BW25113, UniProt P30177 1-320).
T1 sequence: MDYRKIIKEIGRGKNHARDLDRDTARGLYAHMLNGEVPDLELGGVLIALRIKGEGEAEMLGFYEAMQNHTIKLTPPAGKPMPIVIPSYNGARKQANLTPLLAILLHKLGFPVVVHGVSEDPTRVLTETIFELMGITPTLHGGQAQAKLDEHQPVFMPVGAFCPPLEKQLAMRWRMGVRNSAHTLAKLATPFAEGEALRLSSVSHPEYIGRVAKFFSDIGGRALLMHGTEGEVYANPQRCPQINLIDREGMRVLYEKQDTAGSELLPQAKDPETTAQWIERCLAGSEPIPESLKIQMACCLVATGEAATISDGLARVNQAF
Description: EMSA; apparent KD, Hill fit; subunit concentration; EMSA: 20 mM HEPES pH 7.5, 150 mM NaCl, 5 mM MgCl2, 2 mM DTT, 5% glycerol, 30 min at 37 C; 6% PAGE in 1x TBE at room temperature. The settings on record: protein: recombinant; tags: N-terminal His6, thrombin site (pET28a); chain copies: 2; label: 5'-32P; single strand. A general note: Mobility shift assays separate free from complexed probe on a gel.

B1: EMSA_probe (58-nt ssDNA) (ssDNA)
DNA: GCTTTTGATGTACCAATGCATCACCATCACCATCAGGAAATGGGTAAGATGCTTGTAG
On to B1, for which the Kd was approximately 850 nM.
